Source: patent publication US20120114639A1, “COMPOSITIONS AND METHODS FOR INHIBITING VIRAL AND/OR BACTERIAL INFECTIONS” (priority 2010, published 2012)

Tests used:
[1] = tested on: HaCaT cells; experiment: Cell cycle analysis by propidium iodide flow cytometry; type: cell-based, human; details: HaCaT cells in CM infected with HPV16, same inhibitor conditions as infection assays
Method: FIG. 7. GFR activation, serum components including GF, and EGFR are important for HPV16 infections. (A) Relative HPV16 infection of HaCaT cells in the presence of specific GFR and protein tyrosine kinase inhibitors. […] Cells were exposed to HPV16 PsV at 100 vge/cell for one hour at 4° C., then washed extensively and shifted to 37° C. in the presence of the indicated inhibitor in CM for 24 hours at which time they were analyzed for luciferase expression. Data are represented as mean±SEM of three experiments. (B-C) EGFR knockdown was accomplished using siRNA to EGFR and the percent of EGFR protein remaining in EGFR-siRNA transfected HaCaT cells was determined by immunoblot and compared by densitometry to EGFR levels in cells transfected with a negative control siRNA at 48 hours post transfection. Four separate transfections were analyzed (B) and HPV16 PsV infection levels were measured at 24 hours post infection (48 hours post transfection) in each (C). Error bars represent the average of triplicate luciferase readings from the four transfections. […] Infection was quantified by luciferase assay 24 hours post shift to 37° C. […] Infections were quantified by luciferase assay; bars represented the mean SEM of three individual experiments. […] The fractions of cells in G1 (1n), S (intermediate), and G2/M (2n) phases were expressed as percentages of the total. […]

[2] = tested on: HPV16; experiment: HPV16 PsV infection of HaCaT cells, luciferase assay; type: cell-based, human papillomavirus; details: HaCaT in CM, 24 hours in presence of inhibitor; 1 μM AG1478, 100 nM PD168393, 100 μM genistein, 1 μM PD173074, 100-600 nM cetuximab; 100 vge/cell
Method: FIG. 2. HPV16 and syndecan-1 release from the HaCaT cell plasma membrane is MMP dependent. (A, B) Immunoblot for syndecan-1 (polyclonal syndecan-1 Ab) after 24 hours at 37° C. in CM (A) or post starvation in SFM and after six hours at 37° C. in Tyrode's Buffer (B); immunoblot for HPV16 L1 released into CM post virus binding for indicated times (C) or 24 hours (E). (D) Gelatin zymography showing protease activity present in HaCaT cell CM alone or with binding of HPV16. (E-F) Effect of MMP inhibitors batimistat (BM) or marimastat (MM) at the indicated concentrations on HPV16 release into media as in panel C and densitometric quantification with AlphaEaseFC software (E) and relative infection levels (F). […] Infection was assayed by quantifying luciferase levels at 24 hours p.i. […] HPV16 infection was measured with luciferase assay. […]
FIG. 7. […] Cells were exposed to HPV16 PsV at 100 vge/cell for one hour at 4° C., then washed extensively and shifted to 37° C. in the presence of the indicated inhibitor in CM for 24 hours at which time they were analyzed for luciferase expression. […] (B-C) EGFR knockdown was accomplished using siRNA to EGFR and the percent of EGFR protein remaining in EGFR-siRNA transfected HaCaT cells was determined by immunoblot and compared by densitometry to EGFR levels in cells transfected with a negative control siRNA at 48 hours post transfection. […]

[3] = tested on: p-EGFR, p-KGFR and downstream effector p-ERK1/2; experiment: EGFR and KGFR signal activation, phospho-protein immunoblot in serum-starved HaCaT cells; type: cell-based, human; details: 10 minutes ligand exposure; 100 nM PD168393, 1 μM PD173074, 100 μM genistein, 100 μM daidzein, 600 nM cetuximab
Method: FIG. 6. […] (A-B) Immunoblot of p-EGFR, p-KGFR and downstream effector p-ERK1/2 following 10 minutes ligand exposure (listed at the left of each blot: EGF, KGF, HPV16 PsV; lane 2) in serum-starved HaCaT cells. Mock exposed cells were negative controls (lane 1); ligand controls included 10 ng/ml EGF and 10 ng/ml KGF exposure (10 minutes). […] Actin is detected as a loading control. (C-D) Immunoblot of nuclear cell fractions and confocal microscopy localization of p-ERK1/2 following EGF and HPV16 exposure in serum-starved HaCaT cells at indicated times post-exposure. (C) Immunoblot for p-ERK1/2 in nuclear fractions from exposed cells. (D) Immunofluorescent confocal microscopy for localization of p-ERK1/2 (red) in PsV exposed cells. DAPI was used as a nuclear marker and was pseudocolored green to facilitate efficient co-localization of p-ERK1/2 in the nucleus. Parameters of lasers intensities were kept constant during the imaging.
Subconfluent HaCaT cells were serum-starved for 3-4 hours in Tyrode's buffer containing 0.05% BSA. After adding ˜100 vge/cell HPV16 PsV, 10 ng/ml EGF or 10 ng/ml KFG, cells were incubated at 37° C. for 10 minutes before transferring to ice and solubilizing cells with RIPA buffer. […]

## cetuximab: EGFR-specific monoclonal antibody that binds to the EGFR extracellular domain
[1]
  cell cycle distribution (G1, S, G2/M) versus no treatment: relatively similar
[2]
  block of HPV16 infection / reduction of infectivity: 50%
[3]
  rapid phosphorylation of the target GFR and downstream p-ERK1/2 induced by GFs or HPV16: abrogated
